Source: patent publication US7601489B2, “Manganese ion regulation of reverse transcriptase activity and methods of modulating same” (The Johns Hopkins University, priority 2002, dated 2009)

Columns and labels:
wild-type Ty1 RT [1] = details: wild-type RT versus D211N RT
Procedure: (§1) VLP isolation and analysis. Yeast cells harboring pGTy1-H3-mhis3AI were grown in 2% galactose at 22° C. for approximately 24 hr. Cell pellets from these 0.5 L cultures were resuspended in 5 ml buffer B (Eichinger and Boeke, Cell 54: 955-966, 1988, which is incorporated herein by reference) and VLPs were isolated. […] Reactions were set up on ice, carried out for 1 hr at 22° C. and kept on ice while being spotted onto DE81 anion-exchange paper (Whatman International Ltd.; Maidstone, England).
(§2) Protein purification and analysis. Recombinant Ty1 RT (Wilhelm et al., supra, 2000) containing a cleavable N-terminal GST-tag was expressed in E. coli and purified first by affinity chromatography and then by ion exchange chromatography, as described for HIV-1 RT (Le Grice et al., Meth. Enzymol. 262: 130-44, 1995, which is incorporated herein by reference). The GST-tagged protein was eluted from a Glutathione Sepharose 4B™ gel (Amersham) gravity column with buffer (50 mM HEPES-KOH, pH 7.8, 200 mM KCl, 10% glycerol and 2 mM DTT) containing 30 mM reduced glutathione. 50 mM HEPES-KOH, pH 7.0 with 10% glycerol was added to the protein solution to lower the pH to 7.1 and the KCl concentration to 25 mM. The recombinant Ty1 RT was further purified over a Resource S™ (Amersham) cation-exchange column using a linear KCl gradient (25-500 mM). […]

wild-type Ty1 RT [2] = molecular target: T1, wild-type Ty1 RT (Saccharomyces cerevisiae, UniProt P47098); details: wild type Ty1 RT; free divalent cation concentrations less than 6 mM
T1 sequence (P47098 1218-1755 limits assumed): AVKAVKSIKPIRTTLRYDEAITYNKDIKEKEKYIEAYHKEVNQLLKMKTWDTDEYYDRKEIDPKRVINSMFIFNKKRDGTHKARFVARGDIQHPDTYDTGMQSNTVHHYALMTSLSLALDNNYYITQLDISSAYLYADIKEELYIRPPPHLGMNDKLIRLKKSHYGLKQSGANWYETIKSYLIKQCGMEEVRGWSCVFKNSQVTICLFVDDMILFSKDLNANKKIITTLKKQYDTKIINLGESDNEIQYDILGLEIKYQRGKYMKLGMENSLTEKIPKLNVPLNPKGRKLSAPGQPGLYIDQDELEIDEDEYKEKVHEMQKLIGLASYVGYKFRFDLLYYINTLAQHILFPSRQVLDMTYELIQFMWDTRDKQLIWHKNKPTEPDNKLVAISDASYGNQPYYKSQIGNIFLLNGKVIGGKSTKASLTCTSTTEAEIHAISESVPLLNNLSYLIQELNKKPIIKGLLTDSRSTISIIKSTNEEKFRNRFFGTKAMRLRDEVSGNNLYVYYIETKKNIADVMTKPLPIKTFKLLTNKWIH
Procedure: as §1, §2

wild-type Ty1 RT [3] = molecular target: T1, wild-type Ty1 RT; design: Recombinant Ty1 RT (Wilhelm et al., supra, 2000) was PCR amplified and subcloned into the BamH I and Xho I sites of pGEX-4T-3; GST (N); made in house; host or cells: E. coli (pGEX-4T-3); details: purified recombinant Ty1 RT; Wilhelm et al. 2000; cited from earlier work

In the case of `[Mg+2]` [Mg^2+, MgCl2], the “Higher affinity of wild-type RT than D211N RT for the metal ion” value (wild-type Ty1 RT [1]) is given as 50 fold, the “Mg^2+-dependent activation relative to Mn^2+-dependent activation” value (wild-type Ty1 RT [2]) is given as roughly 20 fold and the “Enzymatic activity with Mg^2+ relative to that with Mn^2+” value (wild-type Ty1 RT [3]) is given as 3 fold.
